# Experimental data from patent US10100019B2.
# Amino acid sequences for entries named in this document (tags omitted). Residues count along the entry.
# UniProt Q9UM73, 19-1620: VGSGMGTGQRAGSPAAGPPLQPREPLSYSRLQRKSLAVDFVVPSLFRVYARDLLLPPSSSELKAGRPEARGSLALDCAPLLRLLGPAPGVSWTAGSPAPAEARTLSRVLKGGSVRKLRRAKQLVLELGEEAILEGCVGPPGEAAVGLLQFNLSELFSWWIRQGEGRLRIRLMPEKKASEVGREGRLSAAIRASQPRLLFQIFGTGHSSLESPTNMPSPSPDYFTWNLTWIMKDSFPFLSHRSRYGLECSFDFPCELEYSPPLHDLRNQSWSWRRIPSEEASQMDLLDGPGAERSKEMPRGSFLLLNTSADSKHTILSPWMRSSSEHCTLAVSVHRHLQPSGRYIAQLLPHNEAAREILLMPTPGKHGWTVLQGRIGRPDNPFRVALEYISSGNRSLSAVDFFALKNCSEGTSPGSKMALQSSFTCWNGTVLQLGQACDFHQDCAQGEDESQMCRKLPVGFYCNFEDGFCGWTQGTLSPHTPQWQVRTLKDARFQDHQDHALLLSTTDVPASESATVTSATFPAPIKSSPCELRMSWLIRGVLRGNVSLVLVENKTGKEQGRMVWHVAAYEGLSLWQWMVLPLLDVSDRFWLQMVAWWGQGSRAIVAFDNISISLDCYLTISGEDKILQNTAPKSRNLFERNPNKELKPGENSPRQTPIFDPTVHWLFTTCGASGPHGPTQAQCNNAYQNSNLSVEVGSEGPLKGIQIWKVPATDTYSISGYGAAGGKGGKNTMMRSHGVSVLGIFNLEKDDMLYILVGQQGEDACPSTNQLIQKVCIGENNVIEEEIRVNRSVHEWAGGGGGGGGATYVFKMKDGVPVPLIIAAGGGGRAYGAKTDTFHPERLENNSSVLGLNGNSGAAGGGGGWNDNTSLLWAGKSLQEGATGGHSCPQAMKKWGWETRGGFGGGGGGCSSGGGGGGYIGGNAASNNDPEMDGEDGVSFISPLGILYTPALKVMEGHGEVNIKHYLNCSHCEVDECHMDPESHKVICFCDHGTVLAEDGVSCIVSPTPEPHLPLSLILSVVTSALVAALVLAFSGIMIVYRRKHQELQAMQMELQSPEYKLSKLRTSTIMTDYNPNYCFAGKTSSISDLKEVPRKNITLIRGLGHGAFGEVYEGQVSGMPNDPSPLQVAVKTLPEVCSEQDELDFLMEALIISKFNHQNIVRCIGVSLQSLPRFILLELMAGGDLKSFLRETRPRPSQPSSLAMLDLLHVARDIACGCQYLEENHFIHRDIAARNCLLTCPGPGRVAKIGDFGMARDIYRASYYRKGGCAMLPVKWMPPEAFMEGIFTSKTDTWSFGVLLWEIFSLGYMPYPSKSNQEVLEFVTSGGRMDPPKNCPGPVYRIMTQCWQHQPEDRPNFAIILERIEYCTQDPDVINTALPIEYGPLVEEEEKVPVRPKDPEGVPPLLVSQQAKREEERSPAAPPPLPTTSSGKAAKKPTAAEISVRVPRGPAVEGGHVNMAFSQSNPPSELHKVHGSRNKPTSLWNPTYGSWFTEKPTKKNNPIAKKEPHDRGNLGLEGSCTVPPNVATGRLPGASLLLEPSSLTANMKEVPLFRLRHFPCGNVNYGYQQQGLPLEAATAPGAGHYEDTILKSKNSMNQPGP
# Target: ALK WT (Homo sapiens (Human), UniProt Q9UM73)
# Conditions: read-out: ALK WT (IC50 μM); ALK enzyme, HTRF
row,Compound,IC50
1,"COc1cc(C(C)(C)C#N)c(C)cc1Nc1ncc(Cl)c(Nc2ccccc2S(=O)(=O)C(C)C)n1 [Example 54, 2-(4-((5-chloro-4-((2-(isopropylsulfonyl)phenyl)amino)pyrimidine-2-yl)amino)-5-methoxy-2-methylphenyl)-2-methylpropanenitrile]",0.2 µM
2,"COc1cc(C(C)(C)N)c(C)cc1Nc1ncc(Cl)c(Nc2ccccc2S(=O)(=O)C(C)C)n1 [Example 57, N2-(4-(2-aminopropane-2-yl)-2-methoxy-5-methylphenyl)-5-chloro-N4-(2-(isopropylsulfonyl)phenyl)pyrimidine-2,4-diamine]",0.0015 µM
3,"COc1cc(CNC=O)c(C)cc1Nc1ncc(Cl)c(Nc2ccccc2S(=O)(=O)C(C)C)n1 [Example 71, N-(4-((5-chloro-4-((2-(isopropylsulfonyl)phenyl)amino)pyrimidine-2-yl)amino)-5-methoxy-2-methylbenzyl)formamide]",0.00472 µM
4,"COc1cc(C(C)(C)NC=O)c(C)cc1Nc1ncc(Cl)c(Nc2ccccc2S(=O)(=O)C(C)C)n1 [Example 61, N-(2-(4-((5-chloro-4-((2-(isopropylsulfonyl)phenyl)amino)pyrimidine-2-yl)amino)-5-methoxy-2-methylphenyl)propane-2-yl)formamide]",0.0021 µM
